Rows were chosen to be rich in hits. Some 0.46% of all compounds tested hit in one or more screens of this group.
GIV Gai3 FP: inhibitors of GIV peptide binding to Galpha-i3, primary screen, biochemical, fluorescence polarization, FITC-GIV GBA peptide, rat Galphai3 | 90 min; hits give low values; scaled: aluminum fluoride 0%, vehicle 100% | percent of control (FP), % (concentration not given with the values) | 210,000 compounds, 0.42% hits | AID 1224905, 2016;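 active = replicate mean at 85% of control or lower, very high polarization wells dropped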;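 also: wells of about 15 µL received 100 nL stock; the first replicate is given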
HCMV UL50-53 inh: inhibitors of HCMV UL50-UL53 nuclear egress complex interaction; HTRF UL50-UL53 interaction, normalized percent inhibition; inhibition, % (test concentration not listed); 190,000 tested, 0.15% active; AID 1918969; in the data active means inhibition above about 27%, passing the limit was not always enough
* marks the source's active call; other numbers are inactive results; . = not tested or not shown; ! = not active in a repeat.

SMILES	GIV Gai3 FP	HCMV UL50-53 inh
COC(=O)c1c[nH]c(=S)n1C	106	10
COc1ccc(-c2cc(=O)oc3cc(O)c(Cl)cc23)cc1	101	-75
O=c1cc(C(F)(F)F)c2cc(Cl)c(O)cc2o1	-94*	-44
CC1CCN(c2nc3c(c(=O)n(Cc4ccccc4Cl)c(=O)n3C)n2C)CC1	96	-18
O=C1CCNc2cc3ccccc3cc21	119	-73
O=C1CCNc2ccc(-c3ccccc3)cc21	14*	-58
CCN(CC)S(=O)(=O)c1ccc(C(=O)Nc2ccc3c(c2)OC(C)(C)O3)cc1	106	.
CC(C)C/C=C1\CC/C(=C\c2ccc(N(C)C)cc2)C1=O	-74*	-23
CCCN1C/C(=C\c2ccc(N(C)C)cc2)C(=O)/C(=C/c2ccc(N(C)C)cc2)C1	221	-29
COc1cccc2c1CC/C(=C\c1ccc(N(C)C)cc1)C2=O	-69*	-19
CN(C)c1ccc(/C=C2\CCC(=C3SCCCS3)C2=O)cc1	.	-19
COc1cccc(CNC(=O)c2cc3c(s2)-c2c(C)nn(-c4ccccc4)c2CC3)c1	103	-4
Cn1c(=O)c2sccc2n2c(SCc3cccc(Cl)c3)nnc12	100	-22
CCc1ccc(-n2nnc3c(=O)n(Cc4nc(-c5ccccc5Cl)no4)cnc32)cc1	113	-11
CCCN1C(=O)/C(=C/c2ccc(-c3ccc(Br)cc3)o2)NC1=S	-83*	-27
CCCN1C(=O)/C(=C/c2ccc(-c3cccc(C(F)(F)F)c3)o2)NC1=S	187	-30
Cc1cc(C)c(S(=O)(=O)N2CCC(n3cnc4cccnc43)CC2)c(C)c1	100	-5
O=C1CC(c2cc(F)cc(F)c2)Cc2nc(N3CCN(c4ccccc4F)CC3)ncc21 (stereo unspecified)	97	-3
Oc1c(C=NC2CCCCC2)[nH]c2ccc(Br)c(Cl)c12	-64*	.
Oc1c(C=NCc2ccccc2)[nH]c2ccc(Br)c(Cl)c12	225	.
COc1cccc(N2CC(NC(=O)COc3ccc4ccccc4c3)CC2=O)c1 (stereo unspecified)	94	.
CCn1nc(C)c2ccnc(N3CCC(C(=O)NCCN4CCC(N5CCCCC5)CC4)CC3)c21	101	.
CCOC(=O)N1CCN(C(=O)c2cccn3c(=O)c4cc5ccccc5cc4nc23)CC1	24*	.
Cc1ccc(C)c(N2CCN(C(=O)c3cccn4c(=O)c5ccccc5nc34)CC2)c1	104	.
Oc1ccc2ccccc2c1C=NCc1ccccc1	103	60*
CC(NC(=O)c1ccccc1N=Cc1c(O)ccc2ccccc12)c1ccccc1 (stereo unspecified)	.	68*!
CN/N=C/c1c(O)ccc2ccccc12	.	49*
O/N=C/c1c(O)ccc2ccccc12	98	-23
O=c1oc2ccccc2c(O)c1/C=N/c1ncccn1	.	-18
CC(C(=O)Nc1cccc(N=Cc2c(O)ccc3ccccc23)c1)c1ccccc1 (stereo unspecified)	.	-7

Whole records, looked up by structure. Order of values: GIV Gai3 FP, HCMV UL50-53 inh
Listed for COc1cccc(N2CC(NC(=O)COc3ccc4ccccc4c3)CC2=O)c1 (stereo unspecified) → 94, .
Listed for Oc1ccc2ccccc2c1C=NCc1ccccc1 → 103, 60*

Molecules shown so far with bromine:
SMILES	GIV Gai3 FP	HCMV UL50-53 inh
CCCN1C(=O)/C(=C/c2ccc(-c3ccc(Br)cc3)o2)NC1=S	-83*	-27
Oc1c(C=NC2CCCCC2)[nH]c2ccc(Br)c(Cl)c12	-64*	.
Oc1c(C=NCc2ccccc2)[nH]c2ccc(Br)c(Cl)c12	225	.

(listing goes on)
SMILES	GIV Gai3 FP	HCMV UL50-53 inh
O=CN/N=C/c1c(O)ccc2ccccc12	.	-17
Oc1ccc2ccccc2c1/C=N/c1ncccn1	.	99*
CC(Nc1nc2nonc2nc1NC(C)c1ccccc1)c1ccccc1 (stereo unspecified)	101	.
CCCN1CC2=C(NC(=S)NC2c2ccc(N(C)C)cc2)/C(=C/c2ccc(N(C)C)cc2)C1 (stereo unspecified)	197	-33
CC1(C)CC(=O)C2=C(C1)OC1=C(C(=O)CC(C)(C)C1)C2c1ccc(OCC(=O)O)cc1	93	-26
CC(C)c1ccc(-n2cccc2)cc1	100	.
CC(=O)Nc1ccc2nc(N3CCC(C(=O)Nc4ccc(F)cc4)CC3)cc(C)c2c1	107	.
CC(=O)N1CCC(N(CCCN2CCC(C)CC2)C(=O)NC23CC4CC(CC(C4)C2)C3)CC1	100	-26
CC(=O)N1CCN(C(=O)C2C3CC4CC(C3)CC2C4)CC1 (stereo unspecified)	.	-12
O=C(CSc1nc2ccccc2c(=O)[nH]1)Nc1ccc(F)cc1	105	.
Cc1ccc(Cl)cc1N1CCN(S(=O)(=O)c2cc(-c3cc(C(F)(F)F)on3)cs2)CC1	101	.
O=S(=O)(/N=C\c1cc(Br)ccc1O)c1cccs1	.	3
O=S(=O)(/N=C/c1c(O)ccc2ccccc12)c1cccs1	.	98*
CN1C(=O)CSc2ccc(NC(=O)Nc3cccnc3)cc21	101	35*
Cc1ccc(NC(=O)Nc2ccc3c(c2)N(C)C(=O)CS3)cc1	106	.
COc1cc(/C=C2\C(=O)N(c3ccc(S(N)(=O)=O)cc3)N=C2C)ccc1OCc1ccc(Cl)cc1	102	.
CN1CC=C2C(C#N)=C(N)C(C#N)(C#N)C(CCc3ccccc3)C2C1 (stereo unspecified)	-8.8*	-34
N#CC1=C(N)C(C#N)(C#N)C(c2ccc(Br)cc2)C2CN(Cc3ccccc3)CC=C12 (stereo unspecified)	165	.
N#CC1=C(N)C(C#N)(C#N)C(c2ccc(Cl)cc2)C2CN(Cc3ccccc3)CC=C12 (stereo unspecified)	-58*	.
CCCC1C2CN(Cc3ccccc3)CC=C2C(C#N)=C(N)C1(C#N)C#N (stereo unspecified)	20*	-43
CC(C)CC1C2CN(Cc3ccccc3)CC=C2C(C#N)=C(N)C1(C#N)C#N (stereo unspecified)	121	-27
CC(=O)N1CC=C2C(C#N)=C(N)C(C#N)(C#N)C(Cc3ccccc3)C2C1 (stereo unspecified)	101	-24
O=C(NC1CC1)c1ccc(CN2C(=O)CCn3nc(-c4ccccc4)cc32)cc1	104	-41
Cc1ccccc1Nc1nn2c(=O)c3ccc(C(=O)N4CCc5ccccc5C4)cc3nc2s1	103	-28
O=C(c1ccc(Nc2nn3c(=O)c4ccccc4nc3s2)cc1)N1CCc2ccccc2C1	101	56*
CC1CCN(CCNc2cc(N(C)C)c3noc4c3c2C(=O)c2ccccc2-4)CC1	-4.4*	-135
CN(C)c1cc(Nc2ccc(Cl)cc2)c2c3c(onc13)-c1ccccc1C2=O	111	-23
CCNc1cc(N(C)C)c2noc3c2c1C(=O)c1ccccc1-3	-21*	.
Cc1ccc(Nc2cc(N(C)C)c3noc4c3c2C(=O)c2ccccc2-4)cc1	115	.
CC(=O)Nc1ccc(C(=O)N(Cc2cccnc2)C2(C(=O)NCc3ccccc3)CCN(C(C)=O)CC2)cc1	102	.

Structural class, the compounds so far with a furan ring, fused or not (2)
SMILES	GIV Gai3 FP	HCMV UL50-53 inh
CCCN1C(=O)/C(=C/c2ccc(-c3ccc(Br)cc3)o2)NC1=S	-83*	-27
CCCN1C(=O)/C(=C/c2ccc(-c3cccc(C(F)(F)F)c3)o2)NC1=S	187	-30

Next records follow.
SMILES	GIV Gai3 FP	HCMV UL50-53 inh
COc1ccccc1NC(=O)Cc1csc(-n2nc(C)cc2C)n1	100	-22
CSc1ccc2nnc(-c3cccnc3)n2n1	109	-12
Cc1c(CNCCc2ccc(S(N)(=O)=O)cc2)c(C(=O)O)c(C)n1Cc1ccccc1F	99	-31
O=C(CNC(=O)c1ccncc1)N/N=C/c1ccc([N+](=O)[O-])s1	107	.
COC(=O)CN(C#N)c1nc(NCc2ccccc2)nc(OC)n1	110	54*
COC(=O)CN(C#N)c1nc(C)cc(C)n1	98	1
O=c1[nH]cnc2nc(N3CCOCC3)sc12	103	4
CN1C(N)=NC(=O)/C1=C/c1coc2ccccc2c1=O	97	-35
N=C1/C(=C\c2coc3ccccc3c2=O)C(=O)N=C2SC=NN12	-55*	.
C1=C(c2ccccc2)Nc2ncnn2C1c1ccccc1 (stereo unspecified)	.	-16
COc1cc(C2C=C(c3cccs3)Nc3ncnn32)cc(OC)c1OC (stereo unspecified)	-0.1*	.
Cc1c(N=C/C=C2\N(C)c3ccccc3C2(C)C)c(=O)n(-c2ccccc2)n1C	.	-41
